From patent US20060063715A1

Biological target: TAG-72 antigen (tumor-associated glycoprotein 72) (human)
Experiment: competition ELISA against biotin-labeled CC49 IgG (competitor), TAG-72 in a human breast carcinoma extract

With “CC49/4-4-20 heterodimer Fv (fraction 5) with 217 linkers (bispecific antibody)” the fold higher protein concentration needed to displace the labeled CC49 IgG (against CC49/212 single-chain Fv) was 200 fold.
